For 1 substance, Km results are on record in patent US20200010814A1, “NOVEL MONOOXYGENASE AND UTILIZATION THEREOF” (KANEKA CORPORATION, priority 2017, published 2020).

One data set concerns NADH. Nature of the data set: purified protein, by the assay type. To be noted: pH 7.5.
In another data set the test system is NADPH. Nature of the data set: purified protein, by the assay type. To be noted: pH 7.5.

Turning to peg.801 (Rhodococcus wratislaviensis), the Michaelis constant (Km) in the data set with NADH stood at 0.0082 mM; in the data set with NADPH, 6.2 mM.

As usually defined, the Km is the concentration of substrate that gives half-maximal velocity.
